# Results published in patent US11968978B2, “Formulations and methods for treating photosynthetic organisms and enhancing qualities and quantities of yields with glycan composite formulations” (Innovation Hammer LLC, priority 2016, dated 2024).
# Tested on: Cabbage
# Assay: Cabbage shoot dry weight after foliar treatment with glycan composite components
# Format: in vivo
# Conditions: cabbage shoots, foliar 10 ml/flat, dissolved in Metals^2+ solution, n=36; Metals^2+ control 0.56
smiles,measurement,value
"O=C([O-])CCC(=O)C(=O)[O-].[K+].[K+] [aKG, potassium α-ketoglutarate]","Mean dry weight, Gram",0.59 Gram
